Experimental data: patent publication US8883850B2, “Naphthalene carboxamide M1 receptor positive allosteric modulators” (Merck Sharp & Dohme Corp., priority 2010, dated 2014)
Read-outs that look alike come from different tables or passages of the source.

Protein sequences, listed by entry. Tags and fused reporters are not part of them.
UniProt P11229, whole entry: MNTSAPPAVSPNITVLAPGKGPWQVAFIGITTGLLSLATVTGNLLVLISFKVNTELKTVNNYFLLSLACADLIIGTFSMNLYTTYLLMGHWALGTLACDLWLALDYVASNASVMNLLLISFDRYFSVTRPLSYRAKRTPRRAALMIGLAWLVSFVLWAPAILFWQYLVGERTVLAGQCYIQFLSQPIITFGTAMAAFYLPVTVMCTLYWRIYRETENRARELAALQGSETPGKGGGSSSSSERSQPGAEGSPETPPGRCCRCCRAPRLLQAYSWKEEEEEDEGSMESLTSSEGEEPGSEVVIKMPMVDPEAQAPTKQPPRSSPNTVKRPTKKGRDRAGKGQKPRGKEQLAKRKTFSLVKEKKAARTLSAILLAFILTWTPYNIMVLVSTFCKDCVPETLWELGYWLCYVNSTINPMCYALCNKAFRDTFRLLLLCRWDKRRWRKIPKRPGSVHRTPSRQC

Target: acetylcholine muscarinic M1 receptor (Homo sapiens, UniProt P11229)
Assay: M1 FLIPR assay: intracellular calcium, potentiation of acetylcholine EC20
Conditions: read-out: M1 IP Value, inflection point value from FLIPR assay, CHOnfat/hM1 cells, 4 min pre-incubation, then acetylcholine EC20 (3 nM final)

Row | Structure (SMILES) | EC50 (Table 2, Formula (IV)) [µM] | EC50 (Table 1, Formula (III)) [µM]
1 | CCNC(=O)Oc1c(C(=O)N[C@H]2CCCC[C@@H]2O)cc(Cc2ccc(Cl)nc2)c2ccccc12 | 5.02 | 
2 | COc1c(C(=O)O)cc(CN2CCC(C#N)(c3cc(C)ccn3)CC2)c2ccccc12 |  | 5.38
3 | O=C(N[C@H]1CCCC[C@@H]1O)c1cc(Cc2ccc(Cl)nc2)c2ccccc2c1O | 9.08 | 
